This is an account of results in ChEMBL document CHEMBL1687894, “Design, synthesis and evaluation of 3-methylene-substituted indolinones as antimalarials” (Eur J Med Chem, 2011).

In this assay the test system is Plasmodium falciparum. Nature of the assay: Antiplasmodial activity against chloroquine-resistant Plasmodium falciparum W2 infected in human red blood cells assessed as inhibition of ring-stage parasite growth after 48 hrs by flow cytometry. It is filed as functional, organism-based. The following applies: W2, 48 h.

In the case of `CC(C)C[C@H](NC(=O)[C@H]1O[C@@H]1C(=O)O)C(=O)NCCCCN=C(N)N` [E-64], the IC50 is 1940 nM.
